Experimental data from patent US5063242A (priority 1990, dated 1991).

Chains of the proteins cited; added tags and fusions are not shown. Lines headed by an entry give the natural chain unless they say otherwise; changes in a name come on top.
UniProt P41144: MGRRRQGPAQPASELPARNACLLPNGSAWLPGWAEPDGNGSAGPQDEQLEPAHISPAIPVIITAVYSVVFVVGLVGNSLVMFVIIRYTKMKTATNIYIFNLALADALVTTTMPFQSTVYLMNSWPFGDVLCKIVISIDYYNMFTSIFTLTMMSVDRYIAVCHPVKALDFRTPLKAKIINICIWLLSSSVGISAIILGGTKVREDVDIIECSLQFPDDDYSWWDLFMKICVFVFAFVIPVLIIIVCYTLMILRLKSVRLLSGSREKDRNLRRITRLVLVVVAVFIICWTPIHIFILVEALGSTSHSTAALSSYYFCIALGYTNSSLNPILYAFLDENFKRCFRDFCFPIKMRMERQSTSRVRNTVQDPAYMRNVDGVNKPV

Key:
normally hydrated rat = test: rat diuresis test (urine output in the normally hydrated rat); conditions: subcutaneous, six-hour test period; for maximum volume of urine produced: highest dose tested / maximum effect, mean ± SEM
Male F-344 rats = test: focal brain ischemia: left middle cerebral artery (MCA) occlusion, infarct size by TTC stain
[1] = tested on: carrageenan footpad edema in rats; test: carrageenan footpad edema test; assay type: in vivo, rat; conditions: for Delta Edema (x ± SEM): 5 hours after carrageenan
rat paw pressure = rat paw pressure test for analgesia; conditions: iv
kappa receptor [2] = target: kappa receptor (Cavia porcellus, UniProt P41144); test: in vitro kappa opioid receptor binding
kappa receptor [3] = test: in vitro kappa opioid receptor binding; conditions: selectivity, μ versus kappa

CN(C(=O)Cc1cccc2occc12)[C@H]1CC[C@@]2(CCCO2)C[C@@H]1N1CCCC1 (relative stereo)
maximum volume of urine produced (normally hydrated rat): 14.9 ± 0.7 mL

CN(C(=O)Cc1cccc2occc12)[C@H]1CC[C@@]2(CCCO2)C[C@@H]1N1CCCC1 (single isomer, unassigned)
effect on infarct area and total volume (summary in words) (Male F-344 rats; 0.5 mg/kg IV): significant decrease in the infarct area in three of the four brain sections and in the total volume
Decrease (% change of infarct size vs saline) (Male F-344 rats; Anterior Medial section, 0.5 mg/kg IV): -36.8%
Infarct Size (Male F-344 rats; Anterior Medial section, 0.5 mg/kg IV 30 minutes and 24 hours after occlusion, 48 hours after occlusion, mean): 7.8 mm^2
Decrease (% change of infarct size vs saline) (Male F-344 rats; Anterior section, 0.5 mg/kg IV): -26.4%
Infarct Size (Male F-344 rats; Anterior section, 0.5 mg/kg IV 30 minutes and 24 hours after occlusion, 48 hours after occlusion, mean): 6.5 mm^2
Decrease (% change of infarct size vs saline) (Male F-344 rats; Posterior Medial section, 0.5 mg/kg IV): -62.7%
Infarct Size (Male F-344 rats; Posterior Medial section, 0.5 mg/kg IV 30 minutes and 24 hours after occlusion, 48 hours after occlusion, mean): 4.0 mm^2
Decrease (% change of infarct size vs saline) (Male F-344 rats; Posterior section, 0.5 mg/kg IV): -80.9%
Infarct Size (Male F-344 rats; Posterior section, 0.5 mg/kg IV 30 minutes and 24 hours after occlusion, 48 hours after occlusion, mean): 1.8 mm^2
Decrease (% change of infarct size vs saline) (Male F-344 rats; Total Volume, 0.5 mg/kg IV): -52.3%
Infarct Size, Total Volume (Male F-344 rats; Total volume of infarction, 0.5 mg/kg IV 30 minutes and 24 hours after occlusion, 48 hours after occlusion, mean): 30.1 mm^3
maximum volume of urine produced (normally hydrated rat): 15.5 ± 1.2 mL
effect on urine output (in words) (normally hydrated rat): dose-related increase in the volume of urine
inhibitor of the acute inflammatory response in rats (in words) ([1]; IV): potent
% I ([1]; IV 0.01 mg/kg): 29%
Delta Edema (x ± SEM) ([1]; IV 0.01 mg/kg): 55 ± 4.9
% I ([1]; IV 0.03 mg/kg): 36%
Delta Edema (x ± SEM) ([1]; IV 0.03 mg/kg): 50 ± 3.2
% I ([1]; IV 0.1 mg/kg): 37%
Delta Edema (x ± SEM) ([1]; IV 0.1 mg/kg): 49 ± 2.5
% I ([1]; IV 0.3 mg/kg): 63%
Delta Edema (x ± SEM) ([1]; IV 0.3 mg/kg): 29 ± 3.9
% I ([1]; IV 1.0 mg/kg): 75%
Delta Edema (x ± SEM) ([1]; IV 1.0 mg/kg): 19 ± 3.7
MPEso in the rat paw pressure test for analgesia (rat paw pressure): 0.030
affinity for the kappa receptor (kappa receptor [2]; in vitro receptor binding studies, result in words): very high affinity and selectivity
Ki (kappa receptor [2]; kappa opioid affinity): 0.73 nM
μ/kappa ratio (kappa receptor [3]): 798
